Only a part is listed here, and it is no random draw. Activity calls are given as the source filed them.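 The calls were made as follows: active = activation above the solvent-only control well mean plus 3 SD, averaged across control plates (cut at about 5.2% in these data); inactive = the rest.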
Test: nonselective transcriptional activators, VP16 reporter – cell-based, pG5luc, luminescence, high throughput, counter-screen for SMARCA2 (BRM) activator project (AID 686939)
Settings: HEK293 GAL4-VP16 pG5luc reporter, luciferase luminescence; at 9.1 µM; stronger effect = higher value; scaled: DMSO wells 0%, SAHA wells 100%
Method in brief: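 Assay system: 293 cells carrying GAL4-VP16 plus UAS-luciferase reporter | Read-out basis: Percent activation scaled between DMSO (0%) and SAHA (100%) control medians | Times: 24 h exposure, 37 °C, 5% CO2, One-Glo 15 min RT | Signal: Luciferase luminescence after One-Glo reagent addition | Compound: One dose, 9.1 µM nominal | Repeats: Each compound tested in triplicate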

Row | SMILES | activation
1 | O=C(O)c1cccc(Nc2c([N+](=O)[O-])cc([N+](=O)[O-])cc2[N+](=O)[O-])c1 | inactive: 1.09%
2 | CN(C)C(=O)c1c([N+](=O)[O-])cc([N+](=O)[O-])cc1[N+](=O)[O-] | inactive: 0.93%
